From patent publication US8668921B2, “Lipase inhibitors” (Suntory Holdings Limited, priority 2004, dated 2014) come the findings set out here.

Broadly, the IC50 is the concentration that inhibits the measured activity by half. Lower therefore signals greater potency.

The assay has as its target T1, porcine pancreatic lipase (Sus scrofa, UniProt P00591).
T1 construct: purchased Sigma
T1 sequence (P00591 1-450): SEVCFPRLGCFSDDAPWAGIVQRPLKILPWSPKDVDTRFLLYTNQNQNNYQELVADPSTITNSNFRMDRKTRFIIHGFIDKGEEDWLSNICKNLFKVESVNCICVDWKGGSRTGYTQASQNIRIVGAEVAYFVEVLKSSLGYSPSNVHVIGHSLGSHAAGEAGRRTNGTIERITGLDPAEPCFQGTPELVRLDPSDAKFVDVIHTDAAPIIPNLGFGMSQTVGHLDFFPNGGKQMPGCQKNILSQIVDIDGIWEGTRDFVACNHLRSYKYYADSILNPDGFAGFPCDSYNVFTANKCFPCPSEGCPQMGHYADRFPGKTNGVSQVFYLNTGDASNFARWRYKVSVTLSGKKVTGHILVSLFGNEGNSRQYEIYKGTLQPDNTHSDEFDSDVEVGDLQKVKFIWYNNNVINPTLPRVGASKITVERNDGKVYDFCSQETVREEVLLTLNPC
Description: Lipase inhibitory activity assay (4-MUO fluorescent substrate). The format is biochemical. The note with it: 4-MUO substrate, 25° C., 30 minutes, pH 8.0.

The substance “(−)-catechin 3-O-gallate [(−)-catechin 3-O-gallate (6)]” had an IC50 of 846 nM.
